According to PubChem BioAssay AID504357 (The Scripps Research Institute Molecular Screening Center, 2011):
Only a part is listed here, and it is no random draw. Activity calls are given as the source filed them. No stated cut-off is given here; in the data, active means inhibition above about 22% (passing the limit was not always enough); inactive means the rest.

The chains behind the UniProt entries cited, without tags or fusion partners.
UniProt P35372, whole entry, looked up: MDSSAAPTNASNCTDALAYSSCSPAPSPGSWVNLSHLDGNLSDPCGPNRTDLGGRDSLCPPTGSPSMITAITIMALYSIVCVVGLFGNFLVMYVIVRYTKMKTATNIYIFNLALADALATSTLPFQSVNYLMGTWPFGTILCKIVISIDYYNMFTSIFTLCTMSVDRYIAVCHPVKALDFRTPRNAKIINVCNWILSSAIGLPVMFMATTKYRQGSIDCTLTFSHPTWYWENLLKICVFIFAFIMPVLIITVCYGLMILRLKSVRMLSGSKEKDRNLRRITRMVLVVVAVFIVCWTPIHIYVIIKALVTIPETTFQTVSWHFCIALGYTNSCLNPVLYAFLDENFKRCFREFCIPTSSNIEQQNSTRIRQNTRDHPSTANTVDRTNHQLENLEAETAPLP
UniProt P41143, whole entry, looked up: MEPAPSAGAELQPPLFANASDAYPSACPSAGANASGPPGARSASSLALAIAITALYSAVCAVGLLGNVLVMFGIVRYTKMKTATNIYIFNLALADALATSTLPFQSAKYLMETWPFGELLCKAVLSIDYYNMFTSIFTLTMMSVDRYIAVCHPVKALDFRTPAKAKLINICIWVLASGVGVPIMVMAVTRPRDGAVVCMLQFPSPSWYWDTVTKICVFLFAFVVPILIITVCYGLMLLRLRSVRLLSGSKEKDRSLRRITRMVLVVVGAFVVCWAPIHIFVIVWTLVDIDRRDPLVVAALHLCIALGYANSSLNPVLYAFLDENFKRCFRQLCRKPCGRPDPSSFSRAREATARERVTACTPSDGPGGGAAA

The compounds below were run against Mu-type opioid receptor (Homo sapiens) + Delta-type opioid receptor (Homo sapiens) (UniProt P35372+P41143) (assay: OPRM1-OPRD1 heterodimer inverse agonism – cell-based, luminescence, primary screen (AID 504357;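 further: 0% = cells with DMSO and 100% = wells without cells with DMSO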)). Settings: cell-based MOR-DOR heterodimer luminescence, at 9.3 µM, hits give high values.
For `CC1CCCCC1NC(=O)Cn1cnc2c1c(=O)n(C)c(=O)n2C` (configuration not stated), the inhibition was inactive: 1.03%.
In the case of `Cc1ccccc1Cn1c(=O)c2c(nc3n2CCN3Cc2ccco2)n(C)c1=O`, the inhibition is reported as inactive: 19.8%.
In the case of `CCOc1ccccc1OCC(=O)NNC(=O)Cn1cnc2c1c(=O)n(C)c(=O)n2C`, the inhibition is reported as inactive: -3.9%.
In the case of `O=[N+]([O-])c1cccc2n[nH]nc12`, the inhibition is reported as inactive: 15.3%.
In the case of `Cn1ncc([N+](=O)[O-])c1C(=O)Nc1nc2ccccc2n1CCN1CCCCC1`, the inhibition is reported as inactive: 10.9%.
In the case of `CC(=O)N1C2C3N(C(C)=O)C1C1N(C(C)=O)C(C(N1C(C)=O)N3C(C)=O)N2C(C)=O`, the inhibition is reported as inactive: 15.5%.
For `CC#CCCC(=O)N1C=Cc2ccccc2C1C#N` (configuration not stated), the inhibition was inactive: 10.9%.
`N#CCCNC(=O)Cn1c(COc2ccc(Cl)cc2)nc2ccccc21` was tested, and the inhibition was inactive: 3.29%.
`Cn1c(=O)[nH]c(=O)c2c1nc1n2CCN1Cc1ccccc1` was tested, and the inhibition was inactive: 13.7%.
With `COC(=O)c1sccc1NC(=O)Cn1cnc2c1c(=O)n(C)c(=O)n2C` the inhibition was inactive: -8.68%.
In the case of `Nc1ccccc1CNc1nc(NCCO)nc2c1ncn2CCN1CCOCC1`, the inhibition is reported as inactive: -8.12%.
`Cn1c(=O)c2c(ncn2CC(=O)Nc2ccccc2)n(C)c1=O` was tested, and the inhibition was inactive: -0.47%.
For `NC(=O)CC(NC(=O)c1ccccc1)c1ccc(NC2CCN(Cc3ccccc3)CC2)c([N+](=O)[O-])c1` (configuration not stated), the inhibition was inactive: 6.77%.
In the case of `O=C(Cn1c(NCCO)nc2ccccc21)N1CCN(Cc2ccccc2)CC1`, the inhibition is reported as inactive: 6.18%.
In the case of `N=c1n(CCN2CCCCC2)c2ccccc2n1CC(O)c1ccco1` (configuration not stated), the inhibition is reported as inactive: 18.1%.
For `Cn1c(=O)c2c(ncn2CC(=O)N2CCN(c3ccccc3F)CC2)n(C)c1=O`, the inhibition was inactive: 14.6%.
`CSc1nc(N)nc2c1ncn2CC(=O)NCCCc1ccccc1` was tested, and the inhibition was inactive: 10.4%.
With `CCOC(=O)CSc1nc2ccccc2n1CC(=O)N1CCN(c2ccccc2)CC1` the inhibition was inactive: 16.5%.
For `c1ccc(CN2CCC3(CC2)Nc2ccccc2CO3)cc1`, the inhibition was inactive: -8.59%.
`Cc1cc(NC(=O)CSc2nc3ccccc3n2CC(=O)N2CC(C)CC(C)C2)no1` (configuration not stated) was tested, and the inhibition was inactive: 3.04%.
In the case of `Cn1c(=O)c2c(nc(Cl)n2CC(=O)NC2(C#N)CCCCC2)n(C)c1=O`, the inhibition is reported as inactive: 8.99%.
With `N#CCC(=O)N/N=C\c1cc(Br)ccc1OC/C=C/c1ccccc1` the inhibition was inactive: 0.98%.
With `Cc1ccc(SCc2nc3ccccc3n2CC(=O)Nc2ccccc2)cc1` the inhibition was inactive: -4.99%.
For `Cc1ccc2c(c1)C1CN(C)CCC1N2S(=O)(=O)c1ccc(Oc2ccc([N+](=O)[O-])cc2)cc1` (configuration not stated), the inhibition was inactive: -11.5%.
In the case of `COc1cc(NC(=O)Cn2cnc3c(SC)nc(N)nc32)cc(OC)c1OC`, the inhibition is reported as inactive: -5.58%.
`CCC(=O)Nc1cccc(C(=O)/C=C/c2cccs2)c1` was tested, and the inhibition was inactive: -12.9%.
`CC(=O)N1CCc2cc(S(=O)(=O)NC(CC(C)C)C(=O)N3CCn4c3nc3ccccc34)ccc21` (configuration not stated) was tested, and the inhibition was inactive: -1.01%.
In the case of `COc1ccc(C2=NCC(CBr)S2)cc1` (configuration not stated), the inhibition is reported as inactive: 3.17%.
With `CCN(CC)CCn1c(=N)n(CCO)c2ccccc21` the inhibition was inactive: 10.7%.
For `Cn1c(=O)c2c(ncn2CC(=O)N/N=C/c2ccco2)n(C)c1=O`, the inhibition was inactive: 7.62%.
`Cn1c(=O)c2c(nc(Sc3nc4ccccc4n3CC(=O)N3CCCCC3)n2C)n(C)c1=O` was tested, and the inhibition was inactive: -0.85%.
For `O=C(NC1CCCCC1)N1CCC(n2c(=O)[nH]c3ccccc32)CC1`, the inhibition was inactive: -16%.
`C[C@H](O)[C@@H]1C(=O)N2CCc3ccc(-c4ccccc4)cc3[C@@H]2C[C@@H]1N(C)C(=O)Nc1cc(Cl)cc(Cl)c1` was tested, and the inhibition was inactive: -5.64%.
For `CCC(C)[C@H](NC(=O)N1CCn2c1nc1ccccc12)C(=O)NCCc1ccccc1` (some centres not stated), the inhibition was inactive: -4.75%.
In the case of `Cc1nc2ccccc2n1CC(=O)NC1CCCCCC1`, the inhibition is reported as inactive: 6.32%.
For `O=C(Cn1cnc2c(OCc3ccccc3)ncnc21)NCCCn1ccnc1`, the inhibition was inactive: 20.4%.
`CCSc1nc2ccccc2n1CC(=O)N1CCCCC1` was tested, and the inhibition was inactive: 15.1%.
With `CNC(=O)Cc1nc2ccccc2n1CC(=O)Nc1cc(C)cc(C)c1` the inhibition was inactive: 6.17%.
With `N=c1n(CCN2CCOCC2)c2ccccc2n1CC(=O)c1cccc([N+](=O)[O-])c1` the inhibition was inactive: -2.89%.
`CC1CCN(C(=O)Oc2c(Cl)cc(Cl)c3cccnc23)CC1` was tested, and the inhibition was inactive: -25.8%.
For `O=C1CC(C(=O)Nc2cccc(F)c2)n2c(nc3ccccc32)N1` (configuration not stated), the inhibition was inactive: -1.39%.
For `CN(C)C(=O)OCCc1n(C)cc[n+]1C`, the inhibition was inactive: 6.94%.
With `O=C(Cn1cnc2c(OCc3ccccc3)ncnc21)NCCCN1CCCC1=O` the inhibition was inactive: 13.9%.
For `CCc1nc2ccccc2n1CC(=O)N(C(C)CC)C1CCS(=O)(=O)C1` (configuration not stated), the inhibition was inactive: 9.69%.
`CN1CCC(N(C)c2ncnc3ccc(Br)cc23)CC1` was tested, and the inhibition was inactive: 13.9%.
`Cn1c(=O)c2c(ncn2CC(=O)N2CCN(c3ccc([N+](=O)[O-])cc3)CC2)n(C)c1=O` was tested, and the inhibition was inactive: 10.6%.
In the case of `CCN(CC)CCn1c(NCc2cccc(OC)c2OC)nc2ccccc21`, the inhibition is reported as inactive: 18.3%.
For `NNC(=O)Cn1c(SCc2ccccc2)nc2ccccc21`, the inhibition was inactive: -15%.
In the case of `CC(C)=N/N=C(\N)N[N+](=O)[O-]`, the inhibition is reported as inactive: 8.03%.
In the case of `COC(=O)[C@H](Cc1ccc(O)cc1)NC(=O)Cn1cnc2c(NCc3ccccc3)ncnc21`, the inhibition is reported as inactive: 16.5%.
With `Cn1c(=O)n(CC(=O)N2CCN(c3nnc(-c4ccccc4)c4ccccc34)CC2)c2ccccc21` the inhibition was inactive: 14.4%.
`CCOC(=O)c1c(NC(=O)Cn2c(C)nc3ccccc32)sc2c1CCC2` was tested, and the inhibition was inactive: 5.12%.
For `COc1ccc(/C([O-])=C(/C(=S)Nc2ccc(C)c(C)c2)n2c[n+](C)c3ccccc32)cc1OC`, the inhibition was inactive: 25.2%.
For `CCN(/C(=N/P(=O)(N1CCOCC1)N1CCOCC1)N1CCOCC1)c1ccc(OC)cc1`, the inhibition was inactive: 14.3%.
In the case of `O=C(Nc1ccc2c(c1)nc1n2CCN(Cc2ccccc2)C1)NC1CCCCC1`, the inhibition is reported as inactive: 12.8%.
With `CC(C)C[C@H](NC(=O)N1CCn2c1nc1ccccc12)C(=O)NC1CCCCC1` the inhibition was inactive: 2.51%.
With `C[N+]1=C2C=CC=CC=C2SC12C([N+](=O)[O-])=CC([N+](=O)[O-])=C[C-]2[N+](=O)[O-]` (configuration not stated) the inhibition was inactive: 2.37%.
